Here are results for 1 compound from ChEMBL document CHEMBL1145094, “A novel and selective 5-HT2 receptor agonist with ocular hypotensive activity: (S)-(+)-1-(2-aminopropyl)-8,9-dihydropyrano[3,2-e]indole” (J Med Chem, 2003).

By UniProt entry, the sequences of proteins in these tests, tags left out.
UniProt P14842, whole entry: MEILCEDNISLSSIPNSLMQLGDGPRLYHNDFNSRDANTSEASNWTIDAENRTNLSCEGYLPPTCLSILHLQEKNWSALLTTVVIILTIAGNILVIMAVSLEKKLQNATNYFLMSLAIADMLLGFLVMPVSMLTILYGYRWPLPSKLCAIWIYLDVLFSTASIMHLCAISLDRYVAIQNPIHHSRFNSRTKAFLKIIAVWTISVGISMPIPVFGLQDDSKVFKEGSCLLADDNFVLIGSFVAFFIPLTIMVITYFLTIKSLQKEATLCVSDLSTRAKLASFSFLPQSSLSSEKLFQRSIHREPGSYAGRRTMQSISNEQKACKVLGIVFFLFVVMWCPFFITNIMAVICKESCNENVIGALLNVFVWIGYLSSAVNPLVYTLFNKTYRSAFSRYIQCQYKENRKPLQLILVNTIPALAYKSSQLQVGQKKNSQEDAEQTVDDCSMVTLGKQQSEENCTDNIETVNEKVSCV

For this assay, the target named is 5-hydroxytryptamine receptor 2A (Rattus norvegicus) (UniProt P14842). The assay can be described thus: In vitro efficacy against rat 5-hydroxytryptamine 2A receptor determined by using PI assay (Emax).

`COc1cc(C[C@@H](C)N)c(OC)cc1I`: the Efficacy was found to be 82%.
